Experimental data published in PubChem BioAssay (NCI).
Several values for one entry are separate records, joined by “and”; a condition that tells them apart may be missing. Identical values can stand only once. This is a selection; strong and weak results do not stand in their true shares.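 For each line, cells grew in 96-well plates with the test compound present at a single concentration for 48 hours.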 Activity calls are given as the source filed them. How the source made its calls: active means growth percent below 10; inactive means the rest.

Key:
Test in all cases: NCI-60 one-dose screen, 48 h (100 = growth as untreated, 0 = no growth, -100 = all killed)
Conditions in all cases: 10 µM unless noted
[1] = test system: NCI-H23 lung
[2] = test system: NCI-H226 lung
[3] = test system: NCI-H322M lung
[4] = test system: HOP-62 NSCLC
[5] = test system: NCI-H460 lung
[6] = test system: HOP-92 NSCLC
[7] = test system: NCI-H522 lung
[8] = test system: A549/ATCC NSCLC
[9] = test system: 786-0 renal
[10] = test system: COLO 205 colon

Measured: growth

O=[N+]([O-])c1ccc(-c2cc([N+](=O)[O-])c(O)c([N+](=O)[O-])c2)cc1
inactive: [1] 104% and 112% | [2] 96.2% | [3] 102% | [4] 99% and 107% | [5] 112% and 105% | [6] 91.5% | [7] 112% and 92.4% | [8] 101% and 107% | [9] 103% and 94.9% | [10] 100% and 108%

COc1ccc(C(=O)N(CCCl)CCCl)cc1OC
inactive: [1] 104% | [2] 103% | [3] 111% | [4] 108% | [5] 105% | [6] 93% | [7] 70.2% | [8] 101% | [9] 100% | [10] 108%

ClCCN(CCc1ccccc1)Cc1ccccc1
inactive: [1] 97.5% | [2] 83.9% | [3] 96.1% | [4] 106% | [5] 108% | [6] 107% | [7] 77.6% | [8] 91.2% | [9] 99.7% | [10] 113%

O=C(c1ccc(F)cc1)N(CCCl)CCCl
inactive: [1] 98.1% | [2] 99.1% | [3] 111% | [4] 114% | [5] 107% | [6] 107% | [7] 87.6% | [8] 101% | [9] 98.7% | [10] 121%

CN(C)P1(Cl)=NP(Cl)(N(C)C)=NP(Cl)(N(C)C)=N1 (stereo not given)
inactive: [1] 102% | [2] 96.2% | [3] 86.2% | [4] 92.2% | [5] 106% | [6] 103% | [7] 74.2% | [8] 83.1% | [9] 90.2% | [10] 96.2%

Nc1ccc([As](=O)(O)c2ccc(N)cc2)cc1
inactive: [1] 96.1% | [2] 102% | [3] 105% | [4] 96.4% | [5] 108% | [6] 82.9% | [7] 91.2% | [8] 101% | [9] 105% | [10] 97.7%

CCCN(CCCl)C1c2ccccc2-c2ccccc21
inactive: [1] 99.1% | [2] 97.4% | [3] 96.9% | [4] 88.5% | [5] 109% | [6] 94.3% | [7] 92.1% | [8] 92.2% | [9] 94.7% | [10] 104%

COC1OC(CNCCCl)C2OC(C)(C)OC12 (stereo not given)
inactive: [1] 97.3% | [2] 100% | [3] 134% | [4] 103% | [5] 100% | [6] 145% | [7] 91.8% | [8] 106% | [9] 96.8% | [10] 102%

CC(Cl)CN(CC(C)Cl)C(=O)OCC(N)C(=O)O (stereo not given)
inactive: [1] 102% and 65.1% | [2] 98.5% and 93.1% | [3] 121% and 102% | [4] 92.8% and 107% | [5] 109% and 111% | [6] 94.9% | [7] 88.9% and 110% | [8] 102% | [9] 104% and 96.3% | [10] 96.5% and 106%

Cc1cc([N+](=O)[O-])cc([N+](=O)[O-])c1O
inactive: [1] 100% | [2] 98.5% | [3] 94.9% | [4] 96.8% | [5] 106% | [6] 88.7% | [7] 105% | [8] 96.6% | [9] 101% | [10] 117%

Nc1ccccc1[As](=O)(O)c1ccccc1
inactive: [1] 100% | [2] 97.6% | [3] 111% | [4] 113% | [5] 106% | [6] 72.4% | [7] 57.4% | [8] 102% | [9] 107% | [10] 107%

CC(=O)Nc1ccc([As](=O)(O)O)c(O)c1
inactive: [1] 108% | [2] 106% | [3] 92.1% | [4] 111% | [5] 103% | [6] 68.1% | [7] 100% | [8] 96.4% | [9] 117% | [10] 106%

CC(/C=N/N=C(\N)N[N+](=O)[O-])=N\N=C(/N)N[N+](=O)[O-]
inactive: [1] 115% | [2] 96.2% | [3] 106% | [4] 112% | [5] 109% | [6] 109% | [7] 95.3% | [8] 92.9% | [9] 104% | [10] 117%

NCCc1ccc(N(CCCl)CCCl)cc1
inactive: [1] 65.1% | [2] 80.4% | [3] 109% | [4] 66.2% | [5] 23.3% | [6] 87.2% | [7] 36.6% | [8] 53.7% | [9] 32.8% | [10] 70.7%
